{"source": "patent US20120003310A1", "about": "(priority 2009, published 2012)", "experiment": "Aqueous solubility of rasagiline base and rasagiline salts", "settings": "water", "data": [{"substance": "rasagiline citrate", "values": [{"measurement": "concentration of solutions that could be prepared", "result": "more than 70 % wt"}]}]}
